Among the data in patent US9790229B2, “Bruton's tyrosine kinase inhibitors” (priority 2009, dated 2017) are IC50 values, retold here.

Amino acid sequences for entries named in this document (tags omitted). A change or cut given only in a name is not applied to a line headed by its entry.
UniProt Q06187: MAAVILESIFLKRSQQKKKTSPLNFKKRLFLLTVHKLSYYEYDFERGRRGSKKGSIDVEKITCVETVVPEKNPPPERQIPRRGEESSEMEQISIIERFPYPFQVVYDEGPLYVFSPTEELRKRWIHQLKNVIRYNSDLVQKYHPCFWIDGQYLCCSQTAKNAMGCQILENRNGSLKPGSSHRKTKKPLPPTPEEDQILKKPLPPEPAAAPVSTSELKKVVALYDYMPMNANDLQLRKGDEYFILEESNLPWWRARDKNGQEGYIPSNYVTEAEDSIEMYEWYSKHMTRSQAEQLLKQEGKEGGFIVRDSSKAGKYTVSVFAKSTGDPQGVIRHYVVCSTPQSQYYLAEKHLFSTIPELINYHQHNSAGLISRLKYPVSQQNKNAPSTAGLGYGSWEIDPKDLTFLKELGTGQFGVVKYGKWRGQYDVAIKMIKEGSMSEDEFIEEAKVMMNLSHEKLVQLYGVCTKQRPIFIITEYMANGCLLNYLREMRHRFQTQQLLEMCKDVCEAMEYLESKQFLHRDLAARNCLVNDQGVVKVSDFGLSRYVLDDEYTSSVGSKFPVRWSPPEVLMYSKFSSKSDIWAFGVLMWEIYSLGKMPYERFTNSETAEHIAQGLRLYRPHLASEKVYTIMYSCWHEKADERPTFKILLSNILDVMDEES

Broadly, the IC50 is the concentration that inhibits the measured activity by half.

In the test the target is BTK (Homo sapiens (Human), UniProt Q06187). The test is described as follows: In vitro BTK kinase assay: BTK-POLYGAT-LS ASSAY.
Where [1] appears, read: read-out: IC50 (10 uM ATP), 10 uM ATP, in vitro Btk kinase assay, Example 41.

Structures are written as SMILES. Where two headings read alike, the source gives them in different places. Some results are limits rather than exact numbers.

Compound `O=C(Nc1cccc(C2CCCN(c3ncnc4[nH]ccc34)C2)c1)Nc1cccc2[nH]ccc12` (stereo not shown) [Cmpd 45, 1-(3-(1-(7H-pyrrolo[2,3-d]pyrimidin-4-yl)piperidin-3-yl)phenyl)-3-(1H-indol-4-yl)urea] had an IC50 of 1000 to 10000 nM.

As for `O=C(Nc1cccc(C2CCCN(c3ncnc4[nH]ccc34)C2)c1)Nc1c(Cl)cccc1Cl` (stereo not shown) [Cmpd 59, 1-(3-(1-(7H-pyrrolo[2,3-d]pyrimidin-4-yl)piperidin-3-yl)phenyl)-3-(2,6-dichlorophenyl)urea], the IC50 fell in the range of 100 to 999 nM.

Compound `Cc1cc(NC(=O)Nc2cccc(C3CCCN(c4ncnc5[nH]ccc45)C3)c2)n(C(C)(C)C)n1` (stereo not shown) [Cmpd 36, 1-(3-(1-(7H-pyrrolo[2,3-d]pyrimidin-4-yl)piperidin-3-yl)phenyl)-3-(1-tert-butyl-3-methyl-1H-pyrazol-5-yl)urea] gave an IC50 of 1000 to 10000 nM.

Take `Nc1ncnc(N2CC[C@H](C(F)(F)F)[C@@H](N3CCCC(Nc4cc(F)cc(Cl)c4)C3=O)C2)c1F` (stereo partly drawn) [compound 329, trans 1′-(6-Amino-5-fluoropyrimidin-4-yl)-3-(3-chloro-5-fluorophenylamino)-4′-(trifluoromethyl)-1,3′-bipiperidin-2-one]: the IC50 under setting [1] is under 100 nM.

Regarding `O=C1[C@H](Nc2cc(Cl)cc(Cl)c2)CCN1[C@H]1CN(c2ncnc3[nH]ncc23)CC[C@@H]1C(F)(F)F` [compound 355], the IC50 under setting [1] is under 100 nM.

Consider `O=C(Nc1cccc([C@H]2CCCN(c3ncnc4[nH]ccc34)C2)c1)Nc1c(Cl)cccc1Cl` [compound 153], for which, under setting [1], the IC50 was under 100 nM.

`O=C(Nc1cccc(C2CCCN(c3ncnc4[nH]ccc34)C2)c1)Nc1cccc2c1OC(F)(F)O2` (stereo not shown) [Cmpd 39, 1-(3-(1-(7H-pyrrolo[2,3-d]pyrimidin-4-yl)piperidin-3-yl)phenyl)-3-(2,2-difluorobenzo[d][1,3]dioxol-4-yl)urea] came in with an IC50 of 1000 to 10000 nM.

As to `O=C(Nc1cccc(C2CCCN(c3ncnc4[nH]ccc34)C2)c1)Nc1ccccc1Cl` (stereo not shown) [Cmpd 25, 1-(3-(1-(7H-pyrrolo[2,3-d]pyrimidin-4-yl)piperidin-3-yl)phenyl)-3-(2-chlorophenyl)urea], the IC50 lay in the range of 1000 to 10000 nM.

In turn, `O=C1[C@@H](Nc2cc(Cl)cc(Cl)c2)CCN1[C@@H]1CN(c2ncnc3[nH]ncc23)CC[C@H]1C(F)(F)F` [compound 356] registered an IC50 of 100 to 999 nM.

The compound `O=C(Nc1cccc(C2CCCN(c3ncnc4[nH]ccc34)C2)c1)Nc1ccccc1O` (stereo not shown) [Cmpd 56, 1-(3-(1-(7H-pyrrolo[2,3-d]pyrimidin-4-yl)piperidin-3-yl)phenyl)-3-(2-hydroxyphenyl)urea] gave an IC50 of 100 to 999 nM.

Compound `Nc1ncnc(N2CCCC(c3nc(NC(=O)Nc4ccccc4N4CCCC4)cs3)C2)c1Cl` (stereo not shown) [compound 108, 1-(2-(1-(6-amino-5-chloropyrimidin-4-yl)piperidin-3-yl)thiazol-4-yl)-3-(2-(pyrrolidin-1-yl)phenyl)urea] showed an IC50 of 100 to 999 nM.

As to `Nc1ncnc(N2CC[C@@H](C(F)(F)F)[C@H](N3CCC[C@@H](Nc4cc(F)cc(Cl)c4)C3=O)C2)c1F` [compound 330, trans (3R)-1′-(6-Amino-5-fluoropyrimidin-4-yl)-3-(3-chloro-5-fluorophenylamino)-4′-(trifluoromethyl)-1,3′-bipiperidin-2-one], the IC50 is 100 to 999 nM.

For the compound `O=C(Nc1cccc(C2CCCN(c3ncnc4[nH]ccc34)C2)c1)NC1CCCCC1` (stereo not shown) [Cmpd 54, 1-(3-(1-(7H-pyrrolo[2,3-d]pyrimidin-4-yl)piperidin-3-yl)phenyl)-3-cyclohexylurea], the IC50 lay within 1000 to 10000 nM.

`O=C(Nc1cccc(C2CCCN(c3ncnc4[nH]ccc34)C2)c1)N[C@@H]1CCc2ccccc21` (stereo partly drawn) [Cmpd 40, 1-(3-(1-(7H-pyrrolo[2,3-d]pyrimidin-4-yl)piperidin-3-yl)phenyl)-3-((R)-2,3-dihydro-1H-inden-1-yl)urea] displayed an IC50 of 100 to 999 nM.

`Cc1cccc(C)c1NC(=O)Nc1cccc(C2CCCN(c3ncnc4[nH]ccc34)C2)c1` (stereo not shown) [compound 177]: the half-maximal inhibitory concentration (IC50) is 100 to 999 nM.

For `Nc1ncnc(N2CC[C@@H](C(F)(F)F)[C@H](N3CCC[C@H](Nc4cc(F)cc(Cl)c4)C3=O)C2)c1F` [compound 331, trans (3S)-1′-(6-Amino-5-fluoropyrimidin-4-yl)-3-(3-chloro-5-fluorophenylamino)-4′-(trifluoromethyl)-1,3′-bipiperidin-2-one], the IC50 under setting [1] was over 10000 nM.

`O=C(Nc1cccc(C2CCCN(c3ncnc4[nH]ccc34)C2)c1)N[C@H]1CCCc2ccccc21` (stereo partly drawn) [Cmpd 42, 1-(3-(1-(7H-pyrrolo[2,3-d]pyrimidin-4-yl)piperidin-3-yl)phenyl)-3-((S)-1,2,3,4-tetrahydronaphthalen-1-yl)urea] yielded an IC50 of 1000 to 10000 nM.

`O=C(Nc1cccc(C2CCCN(c3ncnc4[nH]ccc34)C2)c1)N[C@@H]1CCCc2ccccc21` (stereo partly shown) [compound 208] yielded an IC50 of 1000 to 10000 nM.

The compound `COc1cccc(OC)c1NC(=O)Nc1cccc(C2CCCN(c3ncnc4[nH]ccc34)C2)c1` (stereo not shown) [Cmpd 61, 1-(3-(1-(7H-pyrrolo[2,3-d]pyrimidin-4-yl)piperidin-3-yl)phenyl)-3-(2,6-dimethoxyphenyl)urea] displayed an IC50 of 100 to 999 nM.

Regarding `O=C(Nc1cccc([C@@H]2CCCN(c3ncnc4[nH]ccc34)C2)c1)Nc1c(Cl)cccc1Cl` [compound 207], the IC50 was 1000 to 10000 nM.

`Nc1ncnc(N2CC[C@H](C(F)(F)F)[C@@H](N3CCC[C@H](Nc4cc(F)cc(Cl)c4)C3=O)C2)c1F` [compound 333, trans (3S)-1′-(6-amino-5-fluoropyrimidin-4-yl)-3-(3-chloro-5-fluorophenylamino)-4′-(trifluoromethyl)-1,3′-bipiperidin-2-one] gave an IC50 of 1000 to 10000 nM.

`O=C(Nc1cccc(C2CCCN(c3ncnc4[nH]ccc34)C2)c1)N[C@H]1CCc2ccccc21` (stereo partly drawn) [Cmpd 41, 1-(3-(1-(7H-pyrrolo[2,3-d]pyrimidin-4-yl)piperidin-3-yl)phenyl)-3-((S)-2,3-dihydro-1H-inden-1-yl)urea] gave an IC50 of 1000 to 10000 nM.

In turn, `O=C(Nc1cccc(C2CCCN(c3ncnc4[nH]ccc34)C2)c1)Nc1c(F)cccc1F` (stereo not shown) [Cmpd 60, 1-(3-(1-(7H-pyrrolo[2,3-d]pyrimidin-4-yl)piperidin-3-yl)phenyl)-3-(2,6-difluorophenyl)urea] yielded an IC50 of 100 to 999 nM.

In the case of `Nc1ncnc(N2CC[C@H](C(F)(F)F)[C@@H](N3CCC[C@@H](Nc4cc(F)cc(Cl)c4)C3=O)C2)c1F` [compound 332, trans (3R)-1′-(6-Amino-5-fluoropyrimidin-4-yl)-3-(3-chloro-5-fluorophenylamino)-4′-(trifluoromethyl)-1,3′-bipiperidin-2-one], under setting [1], the IC50 is under 100 nM.

`CC(=O)Nc1ccccc1NC(=O)Nc1cccc(C2CCCN(c3ncnc4[nH]ccc34)C2)c1` (stereo not shown) [Cmpd 55, N-(2-(3-(3-(1-(7H-pyrrolo[2,3-d]pyrimidin-4-yl)piperidin-3-yl)phenyl)ureido)phenyl)acetamide] returned an IC50 of 1000 to 10000 nM.
